Data: patent publication US10266806B2, “Stem cell-derived hepatocytes in co-culture and uses thereof” (Colorado State University Research Foundation, priority 2014, dated 2019)

System: CYP1A2
Experiment: CYP1A2 induction in iMPCCs (7-ethoxyresorufin O-dealkylation)
Format: cell-based, human

β-naphthoflavone
induction of iMPCC CYP1A2 activity (4 days): dose-dependent manner | CYP1A2 fold induction in iMPCCs as % of values in PHH-MPCCs (same dose and duration): ~70%
